Results on 1 molecule are retold here after US6887878B2, “KMST isoeugenol derivatives and pharmaceutical activity” (Ing-Jun Chen, priority 2003, dated 2005).

Structures are written as SMILES.

A word on the Ki: it is a measure of affinity in units of concentration, obtained from inhibition or displacement.

The target of this experiment is α2 receptors. The experiment in a line: [3H]yohimbine receptor binding in rat cortex. The note with it: read-out: Ki α2.

`CC(CCc1ccccc1)NCC(O)c1ccc(O)c(C(N)=O)c1` (stereo not shown) [Labetalol]: the Ki came out at 3.54 µM.
